Data as given in BindingDB's records for patent US9156811 (Univeristy of Dundee, 2015).

Legend:
[1] = target: T1, Glycylpeptide N-tetradecanoyltransferase (Trypanosoma brucei brucei (strain 927/4 GUTat10.1), UniProt Q388H8); details: pH 7.4; 25 °C
T1 sequence (Q388H8 whole entry): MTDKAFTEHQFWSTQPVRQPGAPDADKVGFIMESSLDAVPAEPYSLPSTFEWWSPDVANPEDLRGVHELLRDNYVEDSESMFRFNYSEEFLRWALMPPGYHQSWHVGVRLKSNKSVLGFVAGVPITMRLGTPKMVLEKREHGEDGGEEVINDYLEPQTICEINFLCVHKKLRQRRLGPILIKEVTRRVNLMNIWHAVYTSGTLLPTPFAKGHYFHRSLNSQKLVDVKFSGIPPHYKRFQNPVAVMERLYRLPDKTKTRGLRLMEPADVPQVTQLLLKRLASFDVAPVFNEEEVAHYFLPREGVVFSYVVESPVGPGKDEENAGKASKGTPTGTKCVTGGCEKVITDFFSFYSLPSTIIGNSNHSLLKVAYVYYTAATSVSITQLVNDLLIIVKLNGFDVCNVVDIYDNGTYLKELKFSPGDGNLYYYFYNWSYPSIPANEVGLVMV

[2] = target: T2, Glycylpeptide N-tetradecanoyltransferase 1 (Homo sapiens, UniProt P30419); details: pH 7.4; 25 °C
T2 sequence (P30419 whole entry): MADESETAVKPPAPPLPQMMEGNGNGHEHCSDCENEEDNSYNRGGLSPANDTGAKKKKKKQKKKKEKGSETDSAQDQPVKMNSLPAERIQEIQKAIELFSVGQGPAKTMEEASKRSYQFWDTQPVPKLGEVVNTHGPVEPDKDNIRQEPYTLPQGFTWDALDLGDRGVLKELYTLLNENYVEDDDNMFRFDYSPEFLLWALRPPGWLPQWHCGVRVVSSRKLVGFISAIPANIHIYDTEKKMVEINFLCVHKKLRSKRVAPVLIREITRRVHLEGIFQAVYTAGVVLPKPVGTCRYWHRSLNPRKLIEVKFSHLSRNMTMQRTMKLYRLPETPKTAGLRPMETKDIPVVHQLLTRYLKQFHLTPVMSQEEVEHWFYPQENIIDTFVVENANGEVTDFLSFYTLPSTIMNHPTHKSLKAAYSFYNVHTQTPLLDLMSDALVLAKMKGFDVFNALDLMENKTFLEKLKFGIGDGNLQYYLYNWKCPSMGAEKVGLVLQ

| IC50 [1] | IC50 [2] | Compound |
| --- | --- | --- |
| 0.03 µM | – | Cc1nn(C)c(C)c1N[S+](=O)([O-])c1ccc(NCCC2CCN(C)CC2)nc1 [US9156811, DDD88000] |
| – | 9.5 µM | Cc1nn(C)c(C)c1N[S+](=O)([O-])c1ccc(NCCN2CCN(C)CC2)nc1 [US9156811, DDD85602] |
